Screening data deposited in PubChem BioAssay by Broad Institute.
DENV2 CPE rescue = inhibitors of DENV2 cytopathic effect, primary screen, cell-based, plate reader, single concentration; CPE inhibition, % at 9.99 µM; hit rate 1.7% among 350,000; DENV2-infected cells, cytopathic effect rescue; in the data active = CPE inhibition above about 20%, passing the limit was not always enough; inconclusive = no clear call, values can overlap the other calls; tested in BHK-21 cells;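 note: 0% = median of neutral control wells and 100% = median of positive control wells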
UUG fidelity = modulators of yeast start codon fidelity, primary screen, whole organism, S. cerevisiae, single point, plate reader; S. cerevisiae UUG-firefly luciferase reporter, luminescence/redox ratio; activity score, % at 18.7 µM; 0.13% of 350,000 active; AID 602363, 2012;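 active = replicate mean at a twofold rise or more, about +100% in these data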;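 also: firefly luciferase made from a UUG start codon reports start codon fidelity; reporter light over untreated wells divided by growth signal over untreated wells; some hits fall short of that in this replicate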
E-selectin induc = E-selectin induction in HUVECs, primary screen, imaging, HUVEC, immunofluorescence imaging, single point. P16581. normalized: neutral wells 0, TNF-alpha wells 100. activation, % at 7.58 µM. hit rate 0.37% among 260,000;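 active = mean E-selectin-positive cell signal at least 10% of the positive control, reached in at least 60% of replicates, without over 20% cell loss; inconclusive = no rule given, readout overlaps actives, possibly toxicity-flagged; inactive = the rest, including those meeting only one limit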
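material = human umbilical vein endothelial cells (HUVEC), E-selectin induction | quantity = 3,000 cells/well | medium = EGM-2 growth medium on 0.1% gelatin-coated wells | technique = immunofluorescence imaging | read-out basis = % PE-positive cells | control set = TNF-alpha positive control, DMSO neutral control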
Cneo AK release = Cryptococcus neoformans cell lysis inducers, primary screen, AK release luminescence, single concentration. hit rate 0.2% among 360,000. lysis activity, % at 15 µM. AID 651654, 2012. C. neoformans lysis, adenylate kinase release luminescence, 4 h; normalised: neutral wells 0, clomiphene wells 100;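 active = mean lysis activity across replicates of at least 80%, whatever share of replicates individually reach that level; inactive = mean lysis activity below 80%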
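Test system: log-phase Cryptococcus neoformans yeast cells. Input: 5 × 10^6 yeast cells/mL. Medium: fresh YPD growth medium. Doses: single dose. Incubation: static 4 h at 37 °C with compound, 1 h detection. Measured by: luminescent adenylate kinase detection reagent. Read-out: signal increase indicating cell lysis. Benchmarks: Clomiphene.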
An asterisk follows results filed as active; ? = inconclusive; . = no result. Most compounds without a hit are left out; they make up all but 1.8% or so of the library.

SMILES	DENV2 CPE rescue	UUG fidelity	E-selectin induc	Cneo AK release
COc1ccc(S(=O)(=O)N(C)C[C@H]2OCCCC[C@H](C)Oc3ccc(NS(C)(=O)=O)cc3C(=O)N([C@H](C)CO)C[C@@H]2C)cc1	20.2*	4.7	0.0	-0.6
COc1ccc(S(=O)(=O)N(C)C[C@H]2OCCCC[C@@H](C)Oc3ccc(NS(=O)(=O)c4ccccc4)cc3C(=O)N([C@@H](C)CO)C[C@H]2C)cc1	56.4*	6.9	.	-2.3
COc1ccc(S(=O)(=O)N(C)C[C@H]2OCCCC[C@@H](C)Oc3ccc(NS(C)(=O)=O)cc3C(=O)N([C@H](C)CO)C[C@@H]2C)cc1	10.3	9.7	0.2	0.9
COc1ccc(S(=O)(=O)N(C)C[C@@H]2OCCCC[C@H](C)Oc3ccc(NS(=O)(=O)c4ccccc4)cc3C(=O)N([C@H](C)CO)C[C@@H]2C)cc1	?	1.6	.	5.1
COc1ccc(S(=O)(=O)Nc2ccc3c(c2)C(=O)N([C@@H](C)CO)C[C@H](C)[C@H](CN(C)S(=O)(=O)c2ccc(Cl)cc2)OCCCC[C@H](C)O3)cc1	25.3*	-4.8	-0.1	-15.2
COc1ccc(S(=O)(=O)Nc2ccc3c(c2)C(=O)N([C@@H](C)CO)C[C@@H](C)[C@@H](CN(C)S(=O)(=O)c2ccccc2)OCCCC[C@H](C)O3)cc1	21.2*	.	-0.1	.
Cc1noc(C)c1NC(=O)Nc1ccc2c(c1)C(=O)N([C@@H](C)CO)C[C@@H](C)[C@@H](CN(C)S(=O)(=O)c1ccccc1)OCCCC[C@H](C)O2	-1.9	-2.9	-0.1	2.1
C[C@@H]1CCCCO[C@H](CN(C)S(C)(=O)=O)[C@@H](C)CN([C@@H](C)CO)C(=O)c2cc(N(C)C)ccc2O1	-0.7	0.0	-0.7	-1.9
COc1ccc(OCC(O)CNC(=O)c2ccccc2)cc1 (stereo not given)	3.9	.	76.8*	.
COc1ccc(OCC(O)CNC(=O)c2ccc(C)cc2)cc1 (stereo not given)	13.9	.	.	.
O=C(C[n+]1ccsc1)c1ccccc1	31.4*	8.0	-1.1	-0.3
Cc1noc(C)c1NC(=O)N(C)C[C@H]1Oc2c(NC(=O)C3CC3)cccc2C(=O)N([C@H](C)CO)C[C@H]1C	24.4*	-0.8	-0.5	2.0
Cc1noc(C)c1NC(=O)N(C)C[C@H]1Oc2c(cccc2N(C)C)C(=O)N([C@@H](C)CO)C[C@@H]1C	24.5*	-14.0	0.0	-4.1
Cc1noc(C)c1NC(=O)N(C)C[C@H]1Oc2c(NC(=O)C3CC3)cccc2C(=O)N([C@@H](C)CO)C[C@@H]1C	-0.8	-5.7	-0.6	4.8
Cc1noc(C)c1NC(=O)N(C)C[C@@H]1Oc2c(cccc2N(C)C)C(=O)N([C@H](C)CO)C[C@H]1C	-7.4	-23.0	0.2	-5.3
COc1ccc(S(=O)(=O)Nc2ccc3c(c2)C(=O)N([C@H](C)CO)C[C@H](C)[C@@H](CN(C)S(=O)(=O)c2c(C)noc2C)OCCCC[C@H](C)O3)cc1	-11.4	-13.7	.	5.4
O=C(c1cccc(F)c1)N1CC[C@@H]2[C@H]1c1cc(C#Cc3cccc(F)c3)ccc1N[C@@H]2CO	-4.2	-19.6	0.4	2.7
COc1ccccc1C#Cc1ccc2c(c1)[C@@H]1[C@@H](CCN1C(=O)c1ccc(F)cc1)[C@@H](CO)N2	2.2	-4.6	0.2	9.9
O=C(c1ccccc1)N1CC[C@@H]2[C@H]1c1cc(C#Cc3cccc(F)c3)ccc1N[C@@H]2CO	42.6*	-16.6	1.1	10.9
O=C(c1ccccc1)N1CC[C@@H]2[C@@H](CO)Nc3ccc(C#Cc4cccc(F)c4)cc3[C@@H]21	23.3*	-15.2	-0.6	3.0
COc1cccc(C#Cc2ccc3c(c2)[C@@H]2[C@@H](CCN2C(=O)c2ccc(F)cc2)[C@@H](CO)N3)c1	26.0*	-12.6	1.1	-3.8
C[C@H]1CN([C@@H](C)CO)C(=O)c2cc(-c3cncnc3)cnc2O[C@H]1CN(C)Cc1ccc(F)cc1	-0.8	.	0.6	.
CCC(=O)Nc1ccc2c(c1)OC[C@H](C)N(Cc1ccncc1)C[C@H](C)[C@@H](OC)CN(C)C2=O	9.5	-8.4	-0.1	-3.0
COc1ccc2c3c(n(C)c2c1)[C@H](CO)N(CC1CC1)CC31CN(C(=O)c2ccc3c(c2)OCO3)C1	-11.1	.	-0.3	.
CO[C@H]1CN(C)C(=O)c2ccc(NC(C)=O)cc2OC[C@@H](C)N(C(=O)C2CC2)C[C@@H]1C	1.8	9.3	0.3	5.4

The list continues:
SMILES	DENV2 CPE rescue	UUG fidelity	E-selectin induc	Cneo AK release
C/C=C/c1ccc2c(c1)O[C@H](CN(C)S(=O)(=O)c1ccc(C)cc1)[C@H](C)CN([C@H](C)CO)S2(=O)=O	20.0*	-6.7	-0.1	-0.6
C/C=C/c1ccc2c(c1)O[C@@H](CN(C)S(=O)(=O)c1ccc(C)cc1)[C@@H](C)CN([C@@H](C)CO)S2(=O)=O	3.3	-0.7	-0.2	-0.9
Cc1ccc(S(=O)(=O)N(C)C[C@H]2Oc3cc(C#Cc4ccncc4)ccc3S(=O)(=O)N([C@@H](C)CO)C[C@H]2C)cc1	64.1*	.	.	-7.4
C[C@H](CO)N1C[C@H](C)[C@H](CN(C)S(=O)(=O)c2ccc(F)cc2)Oc2cc(C#Cc3ccncc3)ccc2S1(=O)=O	-7.5	-12.4	.	1.9
C[C@@H]1CN([C@H](C)CO)S(=O)(=O)c2ccc(-c3cncnc3)cc2O[C@@H]1CN(C)C(=O)Cc1ccccc1	.	-2.9	0.0	50.0
Cc1noc(C)c1S(=O)(=O)Nc1ccc2c(c1)C(=O)N([C@H](C)CO)C[C@H](C)[C@H](CN(C)Cc1ccccc1)O2	21.2*	6.8	-0.3	1.5
COc1ccc(CN(C)C[C@@H]2Oc3ccc(NS(=O)(=O)c4c(C)noc4C)cc3C(=O)N([C@H](C)CO)C[C@H]2C)cc1	14.3	-11.0	0.1	0.8
COc1ccc(CN(C)C[C@H]2Oc3ccc(NS(=O)(=O)c4c(C)noc4C)cc3C(=O)N([C@H](C)CO)C[C@H]2C)cc1	28.7*	-17.5	19.5	-0.1
C[C@@H]1CN([C@@H](C)CO)C(=O)Cc2cc(NC(=O)NC3CCCCC3)ccc2O[C@H]1CN(C)C(=O)Nc1cccc2ccccc12	-5.6	-6.9	0.1	4.3
C[C@H]1CN([C@@H](C)CO)C(=O)c2cccc(NC(=O)c3nc4ccccc4s3)c2O[C@@H]1CN(C)Cc1ccc(C(F)(F)F)cc1	-0.9	0.8	48.3*	-0.7
COc1ccc(CN(C)C[C@H]2Oc3c(NC(=O)c4nc5ccccc5s4)cccc3C(=O)N([C@H](C)CO)C[C@@H]2C)cc1	24.0*	-1.5	-0.3	-0.7
COc1ccc(CN(C)C[C@H]2Oc3c(NC(=O)c4nc5ccccc5s4)cccc3C(=O)N([C@@H](C)CO)C[C@@H]2C)cc1	-1.3	4.8	0.2	3.1
CCCCNC(=O)c1onc(CSc2cccc(OCC)c2)c1C(=O)O	24.0*	-1.2	0.0	1.0
C[C@H](CO)N1C[C@H](C)[C@H](CN(C)C(=O)C2CCCCC2)OCCCC[C@H](C)Oc2ccc(NC(=O)Nc3cccc4ccccc34)cc2C1=O	9.3	-21.6	0.4	-3.8

Whole records, quoted from the list.
Listed for C[C@H](CO)N1C[C@H](C)[C@H](CN(C)S(=O)(=O)c2ccc(F)cc2)Oc2cc(C#Cc3ccncc3)ccc2S1(=O)=O → DENV2 CPE rescue = -7.5; UUG fidelity = -12.4; E-selectin induc = .; Cneo AK release = 1.9
Listed for CCCCNC(=O)c1onc(CSc2cccc(OCC)c2)c1C(=O)O → DENV2 CPE rescue = 24.0*; UUG fidelity = -1.2; E-selectin induc = 0.0; Cneo AK release = 1.0
Listed for C/C=C/c1ccc2c(c1)O[C@H](CN(C)S(=O)(=O)c1ccc(C)cc1)[C@H](C)CN([C@H](C)CO)S2(=O)=O → DENV2 CPE rescue = 20.0*; UUG fidelity = -6.7; E-selectin induc = -0.1; Cneo AK release = -0.6
